Biological target: T1, Muscarinic M1 (Rattus norvegicus, UniProt P08482)
T1 construct: membranar receptors of various rats organs; from tissue; host or cells: rat cortex, striatum and hippocampus (pool)
Assay: Affinity for muscarinic M1 ([3H]-pirenzepine)
Type: binding
Conditions: versus Atropin

Chains of the proteins cited; added tags and fusions are not shown. Lines headed by an entry give the natural chain unless they say otherwise; changes in a name come on top.
UniProt P08482: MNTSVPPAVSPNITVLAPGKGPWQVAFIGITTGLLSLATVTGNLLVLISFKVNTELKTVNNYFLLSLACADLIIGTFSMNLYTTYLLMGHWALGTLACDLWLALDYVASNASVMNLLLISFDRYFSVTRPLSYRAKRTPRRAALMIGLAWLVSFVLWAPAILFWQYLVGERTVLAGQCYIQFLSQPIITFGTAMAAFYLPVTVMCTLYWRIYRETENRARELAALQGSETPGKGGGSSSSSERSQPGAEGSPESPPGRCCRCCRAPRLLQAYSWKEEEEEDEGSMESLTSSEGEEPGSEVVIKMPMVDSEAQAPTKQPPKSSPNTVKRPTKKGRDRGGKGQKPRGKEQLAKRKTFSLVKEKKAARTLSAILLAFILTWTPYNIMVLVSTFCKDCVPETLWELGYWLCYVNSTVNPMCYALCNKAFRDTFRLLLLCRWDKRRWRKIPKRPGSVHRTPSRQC

COc1ccc(CN(CCN(C)C)c2ccccn2)cc1 [Mepyramine]
affinity for muscarinic M1 sites, times weaker than Atropin: about 1000 times weaker
